Test results reported in PMC7747700, “Enantiomer-specific activities of an LRH-1 and SF-1 dual agonist” (Scientific Reports, 2020).

Chains of the proteins cited; added tags and fusions are not shown. Residues count along the entry.
UniProt Q13285, 218-461: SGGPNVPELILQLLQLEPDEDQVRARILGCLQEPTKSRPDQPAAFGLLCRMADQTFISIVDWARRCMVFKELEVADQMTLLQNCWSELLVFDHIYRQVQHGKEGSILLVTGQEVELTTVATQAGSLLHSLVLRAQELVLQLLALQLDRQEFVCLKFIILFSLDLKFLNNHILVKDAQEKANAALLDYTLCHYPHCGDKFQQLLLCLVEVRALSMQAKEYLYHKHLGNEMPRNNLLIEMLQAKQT

Target: T1, SF-1 LBD (Homo sapiens, UniProt Q13285)
T1 construct: SF-1 LBD (residues 218–461) in the pMSC7 vector; His-tag; made in house; host or cells: E. coli BL21 (pLysS)
Test: Fluorescence polarization competition binding assay, SF-1 LBD
Settings: displacement of 6N-FAM probe, 95% confidence intervals in square brackets
Procedure: Previous coregulator recruitment studies indicate that both RJW100 enantiomers bind LRH-1 and SF-1[34], but ligand binding affinities have not been measured. To determine binding affinities, we utilized a fluorescence polarization-based, equilibrium ligand binding assay in which a fluorescein-labelled probe is displaced by unlabelled competing ligands. Differences in probe affinity for LRH-1 and SF-1 were calculated prior to the competition assays and are accounted for in the equation for fitting the competition data (details in the methods section and our previous publication)[39]. […]. However, magnitude of the affinity difference is fairly small and may not be biologically important. […]. Assays utilized a fluorescein-labelled probe (6 N-FAM) that is displaced by unlabelled competitors. Competition assays were conducted in opaque, black 384 assay plates using a combination of 10 nM 6 N-FAM with 5 nM LRH-1 ligand binding domain (LBD) or 30 nM 6 N-FAM with 25 nM SF-1 LBD (these concentrations were determined through optimization steps in our previous work)[39]. […] FP was measured on a BioTek Neo plate reader. […]
Significance of differences in Ki values from parallel experiments was determined using two-tailed, paired t-tests, with p < 0.05 considered statistically significant.

Row | Ki | SMILES
1 | 13 µM | C=C(c1ccccc1)[C@@]12CC[C@@H](O)[C@@H]1CC(CCCCCC)=C2c1ccccc1 [RR-RJW100, (1R,5R,6R)-3-Hexyl-6-hydroxy-2-phenyl-1-(phenylvinyl)-bicyclo[3.3.0]oct-2-ene]
2 | 30 µM | C=C(c1ccccc1)[C@]12CC[C@H](O)[C@H]1CC(CCCCCC)=C2c1ccccc1 [SS-RJW100, (1S,5S,6S)-3-Hexyl-6-hydroxy-2-phenyl-1-(phenylvinyl)-bicyclo[3.3.0]oct-2-ene]
